Here are results for one compound from patent US8691864B2, “Agents useful for reducing amyloid precursor protein and treating dementia and methods of use thereof” (priority 2000, dated 2014).

The assay concerns βAPP. The assay can be described thus: βAPP levels in brain cortex and CSF of transgenic mice. To be noted: 2.5 mg/kg i.p., once daily for 3 weeks. The class given is in vivo. As to the method: Greater reductions could be achieved, but, as previously reported, doses of >5 mg/kg produce cholinergic side effects for the (−)-enantiomer but not for the (+)-enantiomer.

The structures appear in SMILES notation.

Turning to `CN1CC[C@@]2(C)c3cc(OC(=O)Nc4ccccc4)ccc3N(C)[C@@H]12` [(−)-phenserine], the “reduction of βAPP levels in cerebral cortex” value was 10%.
